Activity calls are given as the source filed them. The rule behind the calls is not given here.

Sequences of proteins named here, by UniProt entry; tags and fusion partners are left off.
UniProt P55055, whole entry: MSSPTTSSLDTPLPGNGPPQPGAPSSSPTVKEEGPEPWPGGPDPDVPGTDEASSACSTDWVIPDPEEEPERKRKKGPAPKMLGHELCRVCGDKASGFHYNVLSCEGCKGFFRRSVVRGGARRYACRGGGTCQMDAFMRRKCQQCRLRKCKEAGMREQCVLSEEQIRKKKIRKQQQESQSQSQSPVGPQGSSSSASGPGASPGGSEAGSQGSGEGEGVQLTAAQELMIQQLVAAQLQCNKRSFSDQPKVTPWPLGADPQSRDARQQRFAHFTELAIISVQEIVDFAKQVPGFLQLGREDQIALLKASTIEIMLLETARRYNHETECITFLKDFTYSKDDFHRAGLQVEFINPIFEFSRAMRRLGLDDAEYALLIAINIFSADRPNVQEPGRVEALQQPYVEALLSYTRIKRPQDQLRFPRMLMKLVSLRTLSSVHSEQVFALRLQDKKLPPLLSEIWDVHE
UniProt Q13133, whole entry: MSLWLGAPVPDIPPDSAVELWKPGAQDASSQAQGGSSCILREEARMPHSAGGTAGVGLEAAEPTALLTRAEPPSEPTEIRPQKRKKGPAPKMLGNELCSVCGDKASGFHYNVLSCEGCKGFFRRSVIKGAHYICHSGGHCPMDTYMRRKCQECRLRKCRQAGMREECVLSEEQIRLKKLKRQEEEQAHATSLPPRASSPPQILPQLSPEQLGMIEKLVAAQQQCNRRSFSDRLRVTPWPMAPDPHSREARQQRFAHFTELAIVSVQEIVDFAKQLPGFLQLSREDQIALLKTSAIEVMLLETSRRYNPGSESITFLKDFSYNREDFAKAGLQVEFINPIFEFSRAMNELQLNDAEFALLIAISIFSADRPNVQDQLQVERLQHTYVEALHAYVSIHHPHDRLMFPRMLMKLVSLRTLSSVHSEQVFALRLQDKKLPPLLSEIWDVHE

The target of assay [1] is Oxysterols receptor LXR-beta (Homo sapiens, UniProt P55055). Description: Transactivational antagonist activity at human LXRbeta transfected in HEK293 cells expressing CMX-Gal4N assessed as inhibition of T1317-induced luciferase activity at 30 uM after 16 hrs by reporter gene assay. The class given is functional, cell-based. In outline: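 Gal4-hLXRα or Gal4-hLXRβ chimera (15 ng) cotransfected with tk-MH100×4-luc reporter (50 ng) and CMX-β-gal (10 ng) into HEK293 cells by calcium phosphate. From 8 h post-transfection, cells got compound (0.1–30 μM) or DMSO for 16 h. Luciferase was normalized to β-gal, in triplicate.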
In general terms: A reporter such as luciferase makes a cellular process visible.

Assay [2] concerns the target Oxysterols receptor LXR-alpha (Homo sapiens, UniProt Q13133). Conditions: HEK293, 30 uM.

Consider `CN(C(=O)c1ccccc1)c1ccc(C(O)(C(F)(F)F)C(F)(F)F)cc1`, for which the inhibition result in assay [1] and in assay [2] was “inactive” throughout.

With `CN1C(=O)c2ccccc2CCc2cc(C(O)(C(F)(F)F)C(F)(F)F)ccc21`, the inhibition entry in assay [1] and in assay [2] was “inactive” each time.

`CN1C(=O)c2ccccc2Oc2cc(C(O)(C(F)(F)F)C(F)(F)F)ccc21`: the inhibition entry in assay [1] and in assay [2] was “inactive” throughout.

For the compound `C=C1c2ccccc2C(=O)N(C)c2ccc(C(O)(C(F)(F)F)C(F)(F)F)cc21`, the inhibition entry in assay [1] and in assay [2] was “inactive” throughout.

Values taken from ChEMBL document CHEMBL2169742, “Design, synthesis, and biological evaluation of novel transrepression-selective liver X receptor (LXR) ligands with 5,11-dihydro-5-methyl-11-methylene-6H-dibenz[b,e]azepin-6-one skeleton” (J Med Chem, 2012).
